# Test results published in paper PMC6759397 (Journal of pharmaceutical sciences, 2019).
# Chains of the proteins cited; added tags and fusions are not shown. Lines headed by an entry give the natural chain unless they say otherwise; changes in a name come on top.
# UniProt Q9Y6L6: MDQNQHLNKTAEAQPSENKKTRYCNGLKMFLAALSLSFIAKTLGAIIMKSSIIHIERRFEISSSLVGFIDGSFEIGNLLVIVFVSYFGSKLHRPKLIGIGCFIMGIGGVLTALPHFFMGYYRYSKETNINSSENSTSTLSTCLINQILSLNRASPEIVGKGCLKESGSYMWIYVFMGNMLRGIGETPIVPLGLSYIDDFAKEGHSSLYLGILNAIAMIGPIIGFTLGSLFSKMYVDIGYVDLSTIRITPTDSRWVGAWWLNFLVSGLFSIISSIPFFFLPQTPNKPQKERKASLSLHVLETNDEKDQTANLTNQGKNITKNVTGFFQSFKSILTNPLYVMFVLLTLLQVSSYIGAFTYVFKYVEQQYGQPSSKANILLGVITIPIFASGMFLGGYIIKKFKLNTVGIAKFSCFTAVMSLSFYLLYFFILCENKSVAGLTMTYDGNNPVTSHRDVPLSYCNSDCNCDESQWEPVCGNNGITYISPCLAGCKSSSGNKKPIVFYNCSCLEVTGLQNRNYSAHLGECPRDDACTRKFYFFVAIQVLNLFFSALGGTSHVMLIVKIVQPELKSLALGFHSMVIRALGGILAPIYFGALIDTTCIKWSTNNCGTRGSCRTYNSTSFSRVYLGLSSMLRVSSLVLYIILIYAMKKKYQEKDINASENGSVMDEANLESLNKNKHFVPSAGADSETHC
# UniProt Q9NPD5: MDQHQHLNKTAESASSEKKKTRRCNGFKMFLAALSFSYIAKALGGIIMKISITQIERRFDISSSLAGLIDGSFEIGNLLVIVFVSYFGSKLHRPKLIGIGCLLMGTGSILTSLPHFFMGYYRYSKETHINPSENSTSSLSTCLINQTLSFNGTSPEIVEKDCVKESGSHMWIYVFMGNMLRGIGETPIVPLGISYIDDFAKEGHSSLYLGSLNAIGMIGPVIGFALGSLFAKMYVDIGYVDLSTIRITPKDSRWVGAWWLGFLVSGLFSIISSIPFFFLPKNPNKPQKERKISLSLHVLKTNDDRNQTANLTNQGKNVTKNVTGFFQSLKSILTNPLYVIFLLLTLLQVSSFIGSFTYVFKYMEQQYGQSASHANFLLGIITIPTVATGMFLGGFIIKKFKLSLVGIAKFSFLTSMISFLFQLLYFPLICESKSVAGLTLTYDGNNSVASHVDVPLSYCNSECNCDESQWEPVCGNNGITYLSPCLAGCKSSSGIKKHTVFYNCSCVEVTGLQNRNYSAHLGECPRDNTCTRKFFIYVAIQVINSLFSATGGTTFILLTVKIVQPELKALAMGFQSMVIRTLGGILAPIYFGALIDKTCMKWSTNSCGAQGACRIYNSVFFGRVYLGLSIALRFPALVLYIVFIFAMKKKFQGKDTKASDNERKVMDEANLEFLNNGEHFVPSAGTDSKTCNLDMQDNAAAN
# Columns and labels:
# [1] = target: OATP1B1 (Homo sapiens, UniProt Q9Y6L6); conditions: [3H]-E1S; 60 min
# [2] = target: OATP1B3 (Homo sapiens, UniProt Q9NPD5); assay: Inhibition of OATP1B3-mediated [3H]-CCK-8 transport in HEK293-OATP1B3 cells; conditions: 60 min
compound,measurement,setting,value
"CO[C@H]1C[C@@H]2CC[C@@H](C)[C@@](O)(O2)C(=O)C(=O)N2CCCC[C@H]2C(=O)O[C@H]([C@H](C)C[C@@H]2CC[C@@H](O)[C@H](OC)C2)CC(=O)[C@H](C)/C=C(\C)[C@@H](O)[C@@H](OC)C(=O)[C@H](C)C[C@H](C)/C=C/C=C/C=C/1C [SIR, sirolimus]","decrease of IC50, pre+co-incubation vs co-incubation",[1],~1.3 fold
same,"decrease of IC50, pre+co-incubation vs co-incubation",[2],~ 2.7 fold
